# How the values were obtained:
# EGFR = conditions: cited from earlier work
# HCC827 = test: Dose-dependent change in panel protein levels by western blot; conditions: 16 h
# A431 cells [1] = test: PRDX6 sandwich ELISA of cell media and lysate after treatment; conditions: 100 nM vs vehicle
# HCC827 cells = test: as above; conditions: for PRDX6 in cell lysates: vs vehicle
# A431 cells [2] = test: SILAC quantitative proteomics of gefitinib-treated cells; assay type: cell-based, human; conditions: domain III of EGFR extracellular domain
# A431 xenografts = test: A431 subcutaneous xenograft study (Example 2); conditions: day 15; vs vehicle, P=0.008
# A431-ZDR tumors = test: Gefitinib-resistant A431-ZDR xenograft model (Example 1); assay type: in vivo, mice; conditions: A431-ZDR tumors from treated animals
# Text: . […] . Control animals received vehicle alone (20 animals).
compound,measurement,setting,value
COc1cc2ncnc(Nc3ccc(F)c(Cl)c3)c2cc1OCCCN1CCOCC1 [gefitinib],phosphorylation of EGFR,EGFR,inhibits
same,BAG4 protein level change,HCC827,N.C.
same,CAD17 protein level change,HCC827,+
same,CBFB protein level change,HCC827,+
same,Claudin 1 protein level change,HCC827,N.C.
same,ELAVL-1 protein level change,HCC827,+
same,EpCAM protein level change,HCC827,+
same,HSPG2 protein level change,HCC827,N.C.
same,PDCD4 protein level change,HCC827,+
same,PRDX6 protein level change,HCC827,+
same,QARS protein level change,HCC827,+
same,S100A9 protein level change,HCC827,+
same,SERPINE1 protein level change,HCC827,+
same,SNX5 protein level change,HCC827,−
same,TESTICAN2 protein level change,HCC827,+
same,TNFAIP2 protein level change,HCC827,N.C.
same,TROP-2 protein level change,HCC827,+
same,PRDX6 level in cell media,"A431 cells [1]; 12 h P=0.025, 24 h P=0.0062, 32 h P=0.0513",increase was significantly greater
same,mean PRDX6 in cell lysate,A431 cells [1]; any time point,no significant difference
same,PRDX6 level in cell media,"HCC827 cells; 100 nM, 12 h P=0.0018, 24 h P=0.0003, 32 h P=0.0069 vs vehicle",increased substantially
same,PRDX6 in cell lysates,HCC827 cells; 12 hours (P=0.0442) and 24 hours (P=0.016),significantly higher
same,PRDX6 in cell lysates,HCC827 cells; 32 hours (P=0.0129),significantly lower
same,EGFR N-linked glycosylation at N356,A431 cells [2],dose-dependent decrease
same,mean phospho-EGFR levels in tumor lysates,A431 xenografts,significantly lower
same,EGFR in tumors,A431-ZDR tumors,down-regulated

# — patent US9588122B2, “Methods of treating cancer sensitive to anti-EGFR therapy and modifying treatment using peroxiredoxin 6 biomarker” (The Board of Trustees of the Leland Stanford Junior …, priority 2013, dated 2017)
